Three compounds from patent US20100256137A1, “INDAZOLAMIDE DERIVATIVES” (MERCK PATENT GESELLSCHAFT MIT BESCHRANKTER HAFTUNG, priority 2007, published 2010) can be followed below.

Each structure is given as a SMILES string. pIC50: −log10 of the molar value.

The target in this assay is T1, Recombinant human HSP90a (Homo sapiens, UniProt P07900).
T1 construct: host or cells: E. coli
Kind of assay: HSP90 radioligand filter binding test ([3H]17AAG competition). The settings on record: [3H]17AAG 0.08 μM, HSP90 1.5 μg/assay, 22° C., 30 min, pH 7.0; read-out: IC50 (HSP90 inhibition). How it is done: In the specific case, a radioligand filter binding test is used. The radioligand used here is tritium-labelled 17-allylaminogeldanamycin, [3H]17AAG. This filter binding test allows a targeted search for inhibitors which interfere with the ATP binding site.
HEPES filter buffer (50 mM HEPES, pH 7.0, 5 mM MgCl2, BSA 0.01%)
Multiscreen FB (1 μm) filter plate (Millipore, MAFBNOB 50).
The 96-well microtitre filter plates are firstly irrigated and coated with 0.1% of polyethylenimine.
The test is carried out under the following conditions:
Reaction temperature 22° C.
Reaction time: 30 min., shaking at 800 rpm
50 mM HEPES HCl, pH 7.0, 5 mM MgCl2, 0.01% (w/v) of BSA
At the end of the reaction, the supernatant in the filter plate is removed by suction with the aid of a vacuum manifold (Multiscreen Separation System, Millipore), and the filter is washed twice.
The filter plates are then measured in a beta counter (Microbeta, Wallac) with scintillator (Microscint 20, Packard).
“% of control” is determined from the “counts per minutes” values, and the IC-50 value of a compound is calculated therefrom.

As for `Cc1cccc(Cc2n[nH]c3cc(O)c(C(=O)N4CCC(O)C4)cc23)c1` (stereo not drawn) [Compound A6, 5-(3-Hydroxypyrrolidin-1-ylcarbonyl)-3-(3-methylbenzyl)-6-hydroxy-1H-indazole], the pIC50 was 6.00 to 8.00. Consider `Cc1cccc(Cc2n[nH]c3cc(O)c(C(=O)N4CC[C@@H](O)C4)cc23)c1` [Compound A8, 5-((R)-3-Hydroxypyrrolidin-1-ylcarbonyl)-3-(3-methylbenzyl)-6-hydroxy-1H-indazole], for which the pIC50 was 6.00 to 8.00.

On to `Cc1cccc(Cc2n[nH]c3cc(O)c(C(=O)N4CC[C@H](O)C4)cc23)c1` [Compound A9, 5-((S)-3-Hydroxypyrrolidin-1-ylcarbonyl)-3-(3-methylbenzyl)-6-hydroxy-1H-indazole], for which the pIC50 is 5.00 to 6.00.
